Results: US20200255478A1, “NOVEL COMPOUNDS ACTIVATING THE NRF2 PATHWAY” (Almirall, S.A., priority 2017, published 2020)

The chains behind the UniProt entries cited, without tags or fusion partners.
UniProt Q14145, whole entry: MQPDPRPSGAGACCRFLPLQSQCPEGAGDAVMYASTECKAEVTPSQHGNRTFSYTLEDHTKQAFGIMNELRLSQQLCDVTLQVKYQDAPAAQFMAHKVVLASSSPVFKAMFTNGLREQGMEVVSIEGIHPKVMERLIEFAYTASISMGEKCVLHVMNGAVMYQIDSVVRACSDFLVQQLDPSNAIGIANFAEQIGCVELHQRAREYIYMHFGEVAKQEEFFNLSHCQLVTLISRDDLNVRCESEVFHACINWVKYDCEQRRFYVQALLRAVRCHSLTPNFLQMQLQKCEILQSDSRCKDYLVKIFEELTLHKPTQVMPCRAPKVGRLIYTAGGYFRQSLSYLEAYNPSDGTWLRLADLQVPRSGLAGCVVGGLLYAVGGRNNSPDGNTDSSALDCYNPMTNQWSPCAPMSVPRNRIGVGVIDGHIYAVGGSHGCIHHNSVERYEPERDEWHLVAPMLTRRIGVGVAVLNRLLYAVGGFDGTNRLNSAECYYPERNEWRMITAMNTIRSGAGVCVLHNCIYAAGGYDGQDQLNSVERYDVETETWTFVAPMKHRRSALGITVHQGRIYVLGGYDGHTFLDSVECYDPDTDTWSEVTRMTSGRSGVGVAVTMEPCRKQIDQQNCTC

Target: Keap1-Maltose Binding Protein (MBP tag) (Homo sapiens, UniProt Q14145)
Experiment: Nrf2-Keap1 HTRF (TR-FRET) binding assay: displacement of biotinylated ETGE peptide from Keap1-MBP

CC(C)C[C@H](NC(=O)[C@H](CC(C)C)NC(=O)[C@@H]1CSCc2ccc3ccccc3c2-c2c(ccc3ccccc23)CSC[C@H](NC(=O)[C@H](CC(C)C)NC(=O)[C@@H](N)CC(C)C)C(=O)N[C@@H](CC(=O)O)C(=O)N2CCC[C@H]2C(=O)N[C@@H](CCC(=O)O)C(=O)N[C@@H]([C@@H](C)O)C(=O)NCC(=O)N[C@@H](CCC(=O)O)C(=O)N1)C(=O)NCCC(=O)N[C@@H](CCCNC(=N)N)C(=O)N[C@@H](CCCCN)C(=O)N[C@@H](CCCCN)C(=O)N[C@@H](CCCNC(=N)N)C(=O)N[C@@H](CCCNC(=N)N)C(=O)N[C@@H](CCC(N)=O)C(=O)N[C@@H](CCCNC(=N)N)C(=O)N[C@@H](CCCNC(=N)N)C(=O)N[C@@H](CCCNC(=N)N)C(N)=O [Example 63] showed a pIC50 of 7.00 to 9.00.

For CCCCCCCCCCCCCCCCCC(=O)N[C@H]1C[C@H]2C(=O)N[C@@H](CCC(N)=O)C(=O)N[C@H]3CSCc4cncc(c4)CSC[C@H](NC(=O)[C@H](CCC(=O)O)NC(=O)CNC(=O)[C@H]([C@@H](C)O)NC(=O)[C@H](CCC(=O)O)NC(=O)[C@@H]4CCCN4C(=O)[C@H](CC(=O)O)NC3=O)C(=O)N[C@@H](CC(C)C)C(=O)N3CCC[C@@H]3C(=O)N2C1 [Example 84, {[&^1Pro((4S)-NH-Stearyl)-Gln-Cys(&^2)-Asp-Pro-Glu-Thr-Gly-Glu-Cys(&^3)-Leu-D-Pro&^1][&^1(pyridine)3,5-diyldimethylene&^2]}], the pIC50 was 7.00 to 9.00.

In the case of CCCCCCCCCCCCCCCCCCCC(=O)N[C@H]1C[C@H]2C(=O)N[C@@H](CCC(N)=O)C(=O)N[C@H]3CSCc4ccccc4CSC[C@H](NC(=O)[C@H](CCC(=O)O)NC(=O)CNC(=O)[C@H]([C@@H](C)O)NC(=O)[C@H](CCC(=O)O)NC(=O)[C@@H]4CSCN4C(=O)[C@H](CC(=O)O)NC3=O)C(=O)N[C@@H](CC(C)C)C(=O)N3CCC[C@@H]3C(=O)N2C1 [Example 93, {[&^1Pro((4S)-NH-Arachidyl)-Gln-Cys(&^2)-Asp-Thz-Glu-Thr-Gly-Glu-Cys(&^3)-Leu-D-Pro&^1][&^2(1,2-phenylenediyl)dimethylene&^3]}], the pIC50 was > 9.00.

CCCCCCCCCCCCCCCCCC(=O)N[C@H]1C[C@H]2C(=O)N[C@@H](CCC(N)=O)C(=O)N[C@H]3CSCc4ccccc4CSC[C@H](NC(=O)[C@H](CCC(=O)O)NC(=O)CNC(=O)[C@H]([C@@H](C)O)NC(=O)[C@H](CCC(=O)O)NC(=O)[C@@H]4CCCN4C(=O)[C@H](CC(=O)O)NC3=O)C(=O)N[C@@H](CC(C)C)C(=O)N3CCC[C@@H]3C(=O)N2C1 [Example 50, {[&^1Pro((4S)-NH-Stearyl)-Gln-Cys(&^2)-Asp-Pro-Glu-Thr-Gly-Glu-Cys(&^3)-Leu-D-Pro&^1][&^2(1,2-phenylenediyl)dimethylene&^3]}] was tested, and the pIC50 was > 9.00.

For CC(=O)N[C@H]1CSCc2ccccc2CSC[C@@H](C(=O)NCCC(=O)N[C@@H](CCCNC(=N)N)C(=O)N[C@@H](CCCCN)C(=O)N[C@@H](CCCCN)C(=O)N[C@@H](CCCNC(=N)N)C(=O)N[C@@H](CCCNC(=N)N)C(=O)N[C@@H](CCC(N)=O)C(=O)N[C@@H](CCCNC(=N)N)C(=O)N[C@@H](CCCNC(=N)N)C(=O)N[C@@H](CCCNC(=N)N)C(N)=O)NC(=O)[C@H](CCC(=O)O)NC(=O)CNC(=O)[C@H]([C@@H](C)O)NC(=O)[C@H](CCC(=O)O)NC(=O)[C@H](C)NC(=O)[C@H](CC(=O)O)NC1=O [Example 21], the pIC50 (HTRF (TR-FRET), displacement of ETGE-biotin from Keap1-MBP, values banded into grades, read-out: Binding (IC50) ETGE-Keap1) was 7.00 to 9.00.

CCCCCCCCCCCCCCCCCC(=O)N[C@H]1C[C@H]2C(=O)N[C@@H](CCC(N)=O)C(=O)N[C@H]3CSCC4(COC4)CSC[C@H](NC(=O)[C@H](CCC(=O)O)NC(=O)CNC(=O)[C@H]([C@@H](C)O)NC(=O)[C@H](CCC(=O)O)NC(=O)[C@@H]4CCCN4C(=O)[C@H](CC(=O)O)NC3=O)C(=O)N[C@@H](CC(C)C)C(=O)N3CCC[C@@H]3C(=O)N2C1 [Example 79, {[&^1Pro((4S)-NH-Stearyl)-Gln-Cys(&^2)-Asp-Pro-Glu-Thr-Gly-Glu-Cys(&^3)-Leu-D-Pro&^1][&^2(3,3-oxetanediyl)dimethylene&^3]}] gave a pIC50 of 7.00 to 9.00.

With CCCCCCCCCCCCCCCCCCCC(=O)N[C@H]1C[C@H]2C(=O)N[C@@H](CCC(N)=O)C(=O)N[C@H]3CSCC4(COC4)CSC[C@H](NC(=O)[C@H](CCC(=O)O)NC(=O)CNC(=O)[C@H]([C@@H](C)O)NC(=O)[C@H](CCC(=O)O)NC(=O)[C@@H]4CSCN4C(=O)[C@H](CC(=O)O)NC3=O)C(=O)N[C@@H](CC(C)C)C(=O)N3CCC[C@@H]3C(=O)N2C1 [Example 94, {[&^1Pro((4S)-NH-Arachidyl)-Gln-Cys(&^2)-Asp-Thz-Glu-Thr-Gly-Glu-Cys(&^3)-Leu-D-Pro&^1][&^2(3,3-oxetanediyl)dimethylene&^3]}] the pIC50 was > 9.00.

CCCCCCCCCCCCCCCCCC(=O)N[C@H]1C[C@H]2C(=O)N[C@@H](CCCCN)C(=O)N[C@H]3CSCc4ccccc4CSC[C@H](NC(=O)[C@H](CCC(=O)O)NC(=O)CNC(=O)[C@H]([C@@H](C)O)NC(=O)[C@H](CCC(=O)O)NC(=O)[C@@H]4CCCN4C(=O)[C@H](CC(=O)O)NC3=O)C(=O)N[C@@H](CC(C)C)C(=O)N3CCC[C@@H]3C(=O)N2C1 [Example 81, {[&^1Pro((4S)-NH-Stearyl)-Lys-Cys(&^2)-Asp-Pro-Glu-Thr-Gly-Glu-Cys(&^3)-Leu-D-Pro&^1][&^2(1,2-phenylenediy1)dimethylene&^3]}] was tested, and the pIC50 was 7.00 to 9.00.

For CCCCCCCCCCCCCCCCCC(=O)NCCC(=O)N[C@H]1CCCCNC(=O)[C@@H]2CCCN2C(=O)[C@H](CC(C)C)NC(=O)[C@@H]2CSCc3ccccc3CSC[C@H](NC(=O)[C@H](CCC(N)=O)NC1=O)C(=O)N[C@@H](CC(=O)O)C(=O)N1CCC[C@H]1C(=O)N[C@@H](CCC(=O)O)C(=O)N[C@@H]([C@@H](C)O)C(=O)NCC(=O)N[C@@H](CCC(=O)O)C(=O)N2 [Example 49, {[Stearyl-βAla-Lys(&^1)-Gln-Cys(&^2)-Asp-Pro-Glu-Thr-Gly-Glu-Cys(&^3)-Leu-Pro&^1][&^2(1,2-phenylenediyl)dimethylene&^3]}], the pIC50 was 7.00 to 9.00.

pIC50: −log10 of the molar value. Read-outs that look alike come from different tables or passages of the source.
